ChEMBL document CHEMBL5136978, “Research progress in pharmacological activities and structure-activity relationships of tetralone scaffolds as pharmacophore and fluorescent skeleton” (Eur J Med Chem, 2022)

The chains behind the UniProt entries cited, without tags or fusion partners.
UniProt P27338, whole entry: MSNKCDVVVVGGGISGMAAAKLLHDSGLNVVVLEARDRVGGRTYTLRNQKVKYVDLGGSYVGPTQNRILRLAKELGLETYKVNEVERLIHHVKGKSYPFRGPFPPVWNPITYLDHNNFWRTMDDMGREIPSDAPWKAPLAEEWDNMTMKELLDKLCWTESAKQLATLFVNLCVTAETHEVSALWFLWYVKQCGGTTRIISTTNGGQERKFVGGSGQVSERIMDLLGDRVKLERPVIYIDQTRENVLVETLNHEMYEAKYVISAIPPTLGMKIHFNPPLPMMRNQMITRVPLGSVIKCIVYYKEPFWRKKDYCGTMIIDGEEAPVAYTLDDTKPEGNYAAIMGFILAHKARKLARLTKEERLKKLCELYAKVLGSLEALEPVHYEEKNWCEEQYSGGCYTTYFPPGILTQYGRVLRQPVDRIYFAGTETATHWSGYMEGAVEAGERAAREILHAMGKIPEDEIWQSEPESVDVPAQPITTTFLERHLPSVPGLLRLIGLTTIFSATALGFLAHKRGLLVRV

Target: Amine oxidase [flavin-containing] B (Homo sapiens, UniProt P27338)
Test: Inhibition of recombinant human MAO-B assessed as measuring amount of 4-hydroxyquinoline using kynuramine as substrate incubated for 20 mins by fluorescence spectrophotometry

IC50: 1.1 nM
SMILES: O=C1CCCc2ccc(OCc3ccc(Cl)cc3)cc21
